This is an account of results in patent US10611777B2, “Imidazopyridazine compounds and their use” (HUTCHISON MEDIPHARMA LIMITED, priority 2014, dated 2020).

In this experiment the test system is SU-DHL-6 cell line. Nature of the experiment: In vitro cell proliferation assay in SU-DHL-6 cell line. It is filed as cell-based. The conditions noted are these: Homo sapiens; SU-DHL-6, 72 h, CCK-8.

`C[C@H](Nc1ncnc(N)c1C#N)c1cc2ncc(Cl)n2nc1-c1ccccc1` [Compound 4, (S)-4-amino-6-((1-(3-chloro-6-phenylimidazo[1,2-b]pyridazin-7-yl)ethyl)amino)pyrimidine-5-carbonitrile] registered a half-maximal inhibitory concentration (IC50) of 1 nM.
